# Antibody variant affinities, Ab-14 heavy chain, assay B

Source: Li et al. 2023 (doi:10.1038/s41467-023-39022-2), MIT Lincoln Laboratory and A-Alpha Bio; data file from the FLAb repository.

All variants were tested on one target, the spike HR2 peptide PDVDLGDISGINAS (SARS-CoV-2).

Parent scFv Ab-14: VH joined to VL by a (GGGGS)3 linker. Changes lie in the heavy chain CDRs alone.
VH: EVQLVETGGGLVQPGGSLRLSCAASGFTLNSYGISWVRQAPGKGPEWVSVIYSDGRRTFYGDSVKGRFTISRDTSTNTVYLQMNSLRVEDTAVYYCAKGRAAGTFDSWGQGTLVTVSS
VL: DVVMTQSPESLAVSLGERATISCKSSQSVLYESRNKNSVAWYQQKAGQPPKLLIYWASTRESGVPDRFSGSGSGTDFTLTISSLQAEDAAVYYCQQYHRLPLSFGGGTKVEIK

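Phage display of a naive human antibody library on the peptide gave the parent. This is the validation round: designs drawn from the data on random variants, tested in the same kind of assay. Group labels follow the data file (Ctrl: baseline library sampled from a position-specific scoring matrix, with some repeated check sequences; Rand: our label for a block that the file lists under HC and that is probably the random mutants of the ten best first-round binders; En: ensemble of fine-tuned language models; GP: Gaussian process model; GPLM: also part of the Gaussian process libraries; HC: hill climbing; Gen: genetic algorithm; Gibbs: Gibbs sampling; a sequence that several methods proposed may carry one label only). AlphaSeq pools MATa yeast showing the antibodies with MATalpha yeast showing the peptide. Pairs that bind mate more often; barcode pairs of the diploids are counted by sequencing. A regression on co-assayed BCL2-family reference pairs converts the normalised counts of each replicate to an apparent Kd. Each pool was mated in six replicate cultures.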

Variants are written as CDR1, CDR2 and CDR3 of the heavy chain (limits as in the source). Parent: GFTLNSYGIS, VIYSDGRRTFYGDSVK, GRAAGTFDS. Each Kd is an estimate from the mating assay, the geometric mean of the replicates in which the pair was seen; lower is stronger. A pair that was not seen in any replicate is written "not detected"; this usually means weak binding, but a binder can also be missed. Entries are sorted by rising average, undetected variants last. As a blank, each scFv also met three strains without target: over all heavy chain designs, 1% of these pairings were detected, typically at 120 nM and seldom below 7.0 nM. The parent sequence was in this pool as ten entries: three were never detected, three once, and four in most replicates, with averages from 2.2 nM to 240 nM. The range of this assay differs from that of the first round, and the authors advise against merging the two. The authors averaged sequences with at least three values out of six and counted those with two or fewer as poor binders. Where one sequence has several entries in the source, the replicates are pooled.

CDR-H1,CDR-H2,CDR-H3,group,Kd (apparent),seen in
GFSLNSYGIS,VIYADGRRTFYGDSVK,GEAAGTFDK,GP_Gen,100 pM,6 of 6
GFDLNEYGIS,VIYADGRRTFYTDNVK,GQNAGTFDL,En_HC,200 pM,6 of 6
GFDLNEYGIS,VIYADGKRTFYIDSVK,GEIAGTFNV,En_HC,210 pM,6 of 6
GFDLNEYGIS,VIYADGMRTFYADSVK,GNEAGTFDM,En_HC,230 pM,5 of 6
GFDLNEYGIS,VIYADGLRTAYADSVK,GSNAGTFDV,En_Gen,240 pM,6 of 6
GFDLDEYGIS,VIYADGRRTAYSDSVK,GQNAGTFDV,En_Gen,280 pM,6 of 6
GFDLNEYGIS,VIYADGMRTAYADTVK,GNNAGTFDI,En_Gen,320 pM,6 of 6
GFNLNEYGIS,VIYADGRRTFYADSVK,GTNAGTFDV,En_HC,330 pM,6 of 6
GFDLNEYGIS,VIYADGRRTFYADSVK,GNTAGTFDK,En_HC,340 pM,6 of 6
GFNLDEYGIS,VIYADGRRTFYSDNVK,GENAGTFDI,En_HC,450 pM,6 of 6
GFNLNEYGIS,VIYADGKRTFYADSVK,GQVAGTFDV,En_HC,460 pM,6 of 6
GFDLNEYGIS,VIYADGRRTYYIDSVK,GETAGTFDV,En_HC,570 pM,6 of 6
GFDLNEYGIS,VIYADGARTFYTDSVK,GEVAGTFDS,En_HC,580 pM,6 of 6
GFDLNEYGIS,VIYADGRRTFYTDSVK,GEFAGTFDK,En_HC,660 pM,6 of 6
GFDLDEYGIS,VIYADGRRTAYADSVK,GNVAGTFDV,En_Gen,690 pM,6 of 6
GFDLNEYGIS,VIYADGQRTAYADSVK,GENAGTFDI,En_Gen,790 pM,6 of 6
GFTLKSYGIS,VIYSDGRRTFYDDSVK,GKVAGTFDS,GP_HC,910 pM,6 of 6
GFDLDEYGIS,VIYADGRRTAYADSVK,GEAAGTFDT,En_HC,930 pM,6 of 6
GFDLDEYGIS,VIYADGMRTAYADDVK,GTNAGTFDL,En_Gen,1.0 nM,6 of 6
GFTLESYGIS,VIYADGRRTFYGDSVK,GRAAGTFDL,GPLM_Gibbs,1.2 nM,6 of 6
GFDLDEYGIS,VIYADGKRQAYADSVK,GENAGTFDV,En_Gen,1.3 nM,6 of 6
GFTLNEYGIS,VIYSDGRRTFYGDSVK,GRTAGTFDN,GPLM_Gen,1.3 nM,6 of 6
GFSLNSYGIS,VIYSDGRRTFYGDSVK,GMLAGTFDS,GP_Gibbs,1.6 nM,6 of 6
GFDLNSYGIS,VIYSDGRRTFYADSVK,GRLAGTFDS,GPLM_Gibbs,1.9 nM,6 of 6
GFTLTSYGIS,VIYADGRRTFYGDSVK,GRAAGTFDS,Ctrl+GPLM_Gen,3.1 nM,12 of 12
GFEIQEYGIS,VIYADGFRTAYAESVK,GNMGGTFST,En_Gibbs,3.2 nM,6 of 6

Second part, the sequence after the result:

Kd (apparent),seen in,CDR-H1,CDR-H2,CDR-H3,group
3.4 nM,6 of 6,GFTLNEYGIS,VIYSDGSRTFYTDSVK,GRTAGTFDS,GPLM_HC
3.6 nM,6 of 6,GFSLNSYGIS,VIYSDGRRTFYGDSVK,GWTAGTFDW,GP_Gen
4.9 nM,6 of 6,GFDLEEYGIS,VIYADGMRTFYSDSVK,GEAAGTFDS,En_HC
5.0 nM,4 of 6,GFELNSYGIS,VIYSDGRRTFYGDSVK,GREAGTFDS,GPLM_Gen
5.3 nM,5 of 6,GFQLNDYGIS,VIYSDGRRTFYVDSVK,GRTAGTFDS,GP_Gen
5.8 nM,5 of 6,GFDLNSYGIS,VIYSDGRRTFYADSVK,GKAAGTFDK,GP_Gen
14 nM,5 of 6,GFTLESYGIS,VIYADGRRTFYGDSVK,GWAAGTFDS,GPLM_Gen
16 nM,6 of 6,GFTLNSYGIS,VIYSDGRRTFYDDSVK,GHLAGTFDS,GPLM_HC
18 nM,6 of 6,GFTLNSYGIS,VIYSDGRRTFYGDSVK,GQTAGTFDK,GPLM_Gibbs
31 nM,6 of 6,GFDLDEYGIS,VIYADGMRTFYADSVK,GNTAGTFIS,En_HC
32 nM,6 of 6,GFTLNSYGIS,VIYSDGRRTFYDDNVK,GQEAGTFDS,GP_HC
35 nM,6 of 6,GFTLNDYGIS,VIYSDGRRTQYIDAVK,GRAAGTFDS,GPLM_HC
310 nM,3 of 6,GITLNSYGIS,VIYSDGRRTFYGDNVK,GRAAGTFDS,Ctrl
not detected,0 of 6,GFTLNSYEIS,VIYSDGRRTFYDDLVK,GQLAGTFDS,Rand
not detected,0 of 6,GFTLESYGIQ,VIYSDGRRTFYGDSVK,ERAAGTFDS,Ctrl
not detected,0 of 6,GFTLNEYGIS,VIYSDGRRTFYGDSVK,GREASTFDS,Ctrl
not detected,0 of 6,GFTLNSYGIS,VIYSDGRRTAYGDSVK,GRIAGTFCS,Ctrl
not detected,0 of 6,GFTLNSYGIS,VIYSDGKRTFYSDSVK,GRAARTFDS,Ctrl
not detected,0 of 6,GFTLKSYGIS,VIYSDGRRTFYGDSVK,GRAAATFVS,Ctrl
not detected,0 of 6,GFDLNEYGIS,VIYADGRRTFYSDSVK,GENAGFFDQ,En_HC
not detected,0 of 6,GVNLDEYGIS,VIYADGKRSHYTDKVK,GTFGDFMIV,En_Gibbs
not detected,0 of 6,GFTLGSYGIS,VIYSDGRRTFYDDSVK,GVAAGTFIS,Ctrl
not detected,0 of 6,GFSLDEYGIS,VIYADGMRTAYTQSVK,GLMQQGRTM,En_Gibbs
not detected,0 of 6,GFDIQDYGIS,VIYADGSRTAYTNSVK,GVTGAFYGL,En_Gibbs
not detected,0 of 6,GFTLNSYGIS,VIYSDGRRTAYGDSVK,GRAAGQFDS,Ctrl
not detected,0 of 6,GFDLNSYGIS,VIYSDGRRTFYGDSVK,GRAAGYFNS,GPLM_HC
not detected,0 of 6,GFSLNDYGIS,VIYSDGRRTFYGDSVK,GRQAGTFWS,GP_HC

The first 7 entries again:

CDR-H1,CDR-H2,CDR-H3,group,Kd (apparent),seen in
GFSLNSYGIS,VIYADGRRTFYGDSVK,GEAAGTFDK,GP_Gen,100 pM,6 of 6
GFDLNEYGIS,VIYADGRRTFYTDNVK,GQNAGTFDL,En_HC,200 pM,6 of 6
GFDLNEYGIS,VIYADGKRTFYIDSVK,GEIAGTFNV,En_HC,210 pM,6 of 6
GFDLNEYGIS,VIYADGMRTFYADSVK,GNEAGTFDM,En_HC,230 pM,5 of 6
GFDLNEYGIS,VIYADGLRTAYADSVK,GSNAGTFDV,En_Gen,240 pM,6 of 6
GFDLDEYGIS,VIYADGRRTAYSDSVK,GQNAGTFDV,En_Gen,280 pM,6 of 6
GFDLNEYGIS,VIYADGMRTAYADTVK,GNNAGTFDI,En_Gen,320 pM,6 of 6